Laboratory results as given in patent US20230049115A1, “SYSTEM AND METHOD FOR TARGET THERMAL ANALYSIS IN COMPLEX FLUIDS” (Portland State University, priority 2021, published 2023).

Experiment: DSC melting temperature of pure proteins and DNA hairpin in standard buffer (Example 2)
Assay type: physicochemical
Settings: standard buffer pH=7.4, independent of concentration
Method: Chemicals and reagents: Standard buffer for all experiments contained 150 mM NaCl, 10 mM potassium phosphate, 15 mM sodium citrate adjusted to pH=7.4 with hydrochloric acid. Pure Proteins: Human Serum Albumin (HSA) (≥99% pure, Lot number: SLBT8667) and lysozyme (recombinant, expressed in rice, Lot number: SLCH2681). The above proteins were prepared in standard buffer and stored at 4° C. for at least 24 hours before use. Concentrations of HSA and lysozyme were confirmed spectrophotometrically at A280.
DNA: The DNA was a 20-base pair hairpin purchased from IDT and received following a standard desalting routine. The DNA standard sequence is 5′-[…]-3′ (SEQ ID NO: 6). Lyophilized DNA was resuspended in standard buffer and stored at 4° C. DNA concentration matched the manufacturer specification as determined spectrophotometrically at A260.
DSC Measurements: DSC melting experiments were made using a CSC differential scanning microcalorimeter (now T.A. instruments, New Castle, Del.). […]
Baselines of the raw ΔCp or μcal versus temperature thermograms were determined using a four-point polynomial fit, over the temperature range of the transition, consistent with previous methods (Eskew et al., Anal Biochem 2021, 612:113843; Koslen et al., Adv in Biol Chem 2019, 9; Eskew et al., Anal Biochem 2021, 628:114293). […]

## HSA: Human Serum Albumin, ≥99% pure
  Tm: 63.62±0.11 °C
